# Measurements published in patent publication US20230312639A1, “GPER PROTEOLYTIC TARGETING CHIMERAS” (University of Iowa Research Foundation, priority 2020, published 2023).
# Amino acid sequences for entries named in this document (tags omitted).
# UniProt Q99527, whole entry: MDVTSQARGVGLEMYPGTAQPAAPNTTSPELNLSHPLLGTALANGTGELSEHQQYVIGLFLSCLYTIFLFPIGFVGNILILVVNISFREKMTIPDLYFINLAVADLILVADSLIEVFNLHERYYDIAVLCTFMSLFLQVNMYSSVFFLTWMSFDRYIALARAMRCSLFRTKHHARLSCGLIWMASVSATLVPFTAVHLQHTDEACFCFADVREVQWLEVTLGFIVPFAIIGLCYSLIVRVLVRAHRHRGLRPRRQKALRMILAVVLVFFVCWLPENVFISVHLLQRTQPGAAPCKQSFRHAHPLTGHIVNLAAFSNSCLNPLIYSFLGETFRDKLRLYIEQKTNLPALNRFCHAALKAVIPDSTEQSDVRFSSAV
# Molecular target: GPER (Homo sapiens, UniProt Q99527)
# Test: Competitive binding assay in intact SKBR3 cells with E2-FITC as fluoro-tracer (flow cytometry)
# Design: endogenous in cells; host or cells: SKBR3 human breast carcinoma cells (ATCC)
smiles,measurement,setting,value
Cc1ncsc1-c1ccc(CNC(=O)C2CC(O)CN2C(=O)C(NC(=O)COCCOCCOCCOCC(=O)OC2CCC3C4CCc5cc(O)ccc5C4CCC23C)C(C)(C)C)cc1 (stereo not drawn) [UI-EP001],"RBA%, GPER",IC50 of 17β-E2 divided by IC50 of test compound,331.1%
same,IC50,"intact SKBR3 cells, 100 nM E2-FITC, mean ± SD of triplicates",30.2 ± 0.9 nM
same,Kd,"intact SKBR3 cells, E2-FITC, read-out: binding dissociation constant (Kd), GPER",30.2 nM
